Results published in US8168233B2 (Amylin Pharmaceuticals, Inc., priority 2002, dated 2012).

Legend:
[1] = Solubility and stability characteristics compared to human amylin; type: physicochemical
[2] = Adsorption onto glass container in liquid form; type: physicochemical
[3] = Amylin activity in vivo in treated test animals (hyperlactemia followed by hyperglycemia); details: e.g., provoking marked hyperlactemia followed by hyperglycemia

CC[C@H](C)[C@H](NC(=O)[C@@H]1CCCN1C(=O)CNC(=O)[C@H](Cc1ccccc1)NC(=O)[C@H](CC(N)=O)NC(=O)[C@H](CC(N)=O)NC(=O)[C@H](CO)NC(=O)[C@H](CO)NC(=O)[C@H](CCCNC(=N)N)NC(=O)[C@@H](NC(=O)[C@H](CC(C)C)NC(=O)[C@H](Cc1ccccc1)NC(=O)[C@H](CC(N)=O)NC(=O)[C@H](C)NC(=O)[C@H](CC(C)C)NC(=O)[C@H](CCCNC(=N)N)NC(=O)[C@H](CCC(N)=O)NC(=O)[C@@H](NC(=O)[C@H](C)NC(=O)[C@@H]1CSSC[C@H](NC(=O)[C@@H](N)CCCCN)C(=O)N[C@@H](CC(N)=O)C(=O)N[C@@H]([C@@H](C)O)C(=O)N[C@@H](C)C(=O)N[C@@H]([C@@H](C)O)C(=O)N1)[C@@H](C)O)C(C)C)C(=O)N[C@@H](CC(C)C)C(=O)N1CCC[C@H]1C(=O)N[C@@H](CO)C(=O)N[C@H](C(=O)N[C@@H](CC(N)=O)C(=O)N[C@H](C(=O)NCC(=O)N[C@@H](CO)C(=O)N[C@@H](CC(N)=O)C(=O)N[C@H](C(=O)N[C@@H](Cc1ccc(O)cc1)C(N)=O)[C@@H](C)O)C(C)C)[C@@H](C)O [^18Arg^25,28Pro-h-amylin]
solubility and stability characteristics [1]: more desirable

CC[C@H](C)[C@H](NC(=O)[C@@H]1CCCN1C(=O)CNC(=O)[C@H](Cc1ccccc1)NC(=O)[C@H](CC(N)=O)NC(=O)[C@H](CC(N)=O)NC(=O)[C@H](CO)NC(=O)[C@H](CO)NC(=O)[C@H](Cc1c[nH]cn1)NC(=O)[C@@H](NC(=O)[C@H](CC(C)C)NC(=O)[C@H](Cc1ccccc1)NC(=O)[C@H](CC(N)=O)NC(=O)[C@H](C)NC(=O)[C@H](CC(C)C)NC(=O)[C@H](CCCNC(=N)N)NC(=O)[C@H](CCC(N)=O)NC(=O)[C@@H](NC(=O)[C@H](C)NC(=O)[C@@H]1CSSC[C@H](NC(=O)[C@@H](N)CCCCN)C(=O)N[C@@H](CC(N)=O)C(=O)N[C@@H]([C@@H](C)O)C(=O)N[C@@H](C)C(=O)N[C@@H]([C@@H](C)O)C(=O)N1)[C@@H](C)O)C(C)C)C(=O)N[C@@H](CC(C)C)C(=O)N1CCC[C@H]1C(=O)N1CCC[C@H]1C(=O)N[C@H](C(=O)N[C@@H](CC(N)=O)C(=O)N[C@H](C(=O)NCC(=O)N[C@@H](CO)C(=O)N[C@@H](CC(N)=O)C(=O)N[C@H](C(=O)N[C@@H](Cc1ccc(O)cc1)C(N)=O)[C@@H](C)O)C(C)C)[C@@H](C)O [^25,28,29Pro-h-amylin]
tendency to adsorb onto the glass in a glass container [2]: does not have a tendency to adsorb onto the glass
solubility and stability characteristics [1]: more desirable
amylin activity in vivo [3]: show amylin activity in vivo

CC(C)C[C@H](NC(=O)[C@H](CCCNC(=N)N)NC(=O)[C@H](CCC(N)=O)NC(=O)[C@@H](NC(=O)[C@H](C)NC(=O)[C@@H]1CSSC[C@H](NC(=O)[C@@H](N)CCCCN)C(=O)N[C@@H](CC(N)=O)C(=O)N[C@@H]([C@@H](C)O)C(=O)N[C@@H](C)C(=O)N[C@@H]([C@@H](C)O)C(=O)N1)[C@@H](C)O)C(=O)N[C@@H](C)C(=O)N[C@@H](CC(N)=O)C(=O)N[C@@H](Cc1ccccc1)C(=O)N[C@@H](CC(C)C)C(=O)N[C@H](C(=O)N[C@@H](Cc1c[nH]cn1)C(=O)N[C@@H](CO)C(=O)N[C@@H](CO)C(=O)N[C@@H](CC(N)=O)C(=O)N[C@@H](CC(N)=O)C(=O)N[C@@H](Cc1ccccc1)C(=O)NCC(=O)N1CCC[C@H]1C(=O)N[C@H](C(=O)N[C@@H](CC(C)C)C(=O)N1CCC[C@H]1C(=O)N1CCC[C@H]1C(=O)N[C@H](C(=O)N[C@@H](CC(N)=O)C(=O)N[C@H](C(=O)NCC(=O)N[C@@H](CO)C(=O)N[C@@H](CC(N)=O)C(=O)N[C@H](C(=O)N[C@@H](Cc1ccc(O)cc1)C(N)=O)[C@@H](C)O)C(C)C)[C@@H](C)O)C(C)C)C(C)C [^25Pro^26Val^28,29Pro-h-amylin]
solubility and stability characteristics [1]: more desirable
